scFv variants of Ab-14 (light chain) against a SARS-CoV-2 spike peptide

Antigen: PDVDLGDISGINAS, a 14-residue peptide of the SARS-CoV-2 spike HR2 region.

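The parent was found by panning a naive human phage display library on the peptide. These sequences belong to a second round, designed from the earlier measurements on random variants of the parent. Several design methods are mixed in this list. In AlphaSeq, yeast of one mating type display the scFv and yeast of the other type display the target. After mating in shaken culture at 30 °C for 16 h, diploids were selected and their barcode pairs sequenced. A regression on co-assayed BCL2-family reference pairs converts the normalised counts of each replicate to an apparent Kd. There are six technical replicates.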

Ab-14 is the parent antibody, in scFv form: VH, then the linker GGGGSGGGGSGGGGS, then VL. The heavy chain is unchanged in all variants.
VH: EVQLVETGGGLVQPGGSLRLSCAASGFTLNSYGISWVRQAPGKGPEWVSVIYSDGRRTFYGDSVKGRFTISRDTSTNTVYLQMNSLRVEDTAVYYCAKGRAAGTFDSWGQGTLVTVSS
VL: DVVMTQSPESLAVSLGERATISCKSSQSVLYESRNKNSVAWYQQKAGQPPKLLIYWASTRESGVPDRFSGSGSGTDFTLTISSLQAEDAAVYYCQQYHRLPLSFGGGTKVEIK

The parent's light chain CDRs are KSSQSVLYESRNKNSVA, WASTRES, QQYHRLPLS; each variant's own CDRs replace them letter for letter. This list holds designs with more than six substitutions. Kd is apparent (estimated from mating counts) and averaged on the log scale over replicates with a signal. Smaller is tighter. A pair that was not seen in any replicate is written "nd"; this usually means weak binding, but a binder can also be missed. The parent sequence was in this pool as ten entries: three were never detected, three once, and four in most replicates, with averages from 2.2 nM to 240 nM.

For KLSTSWLYESRMVNAVA | EASTRMD | QQYHRLPLS, the assay gave 2.3 nM (6 of 6 replicates; controls 1 of 18).
For HFSQHTMEFMSQNKAIA | EVTTTMT | QQYARLPFI, the assay gave 6.9 nM (6 of 6 replicates; controls 0 of 18).
For KIGGVTNGISVSKNSVA | EQSTRED | QQYNRLPLS, the assay gave 1.6 nM (6 of 6 replicates; controls 0 of 18).
For KLLQTVMNETMNRNNVA | HMTTRED | QQYHRLPLS, the assay gave 5.1 nM (6 of 6 replicates; controls 0 of 18).
For SLTAHHQEAKSAENSIA | EAVMLQS | QQYHQLPLM, the assay gave 13 nM (6 of 6 replicates; controls 0 of 18).
For KLEWSDLLESRNKQSVA | QASTRMS | QQYHRLPLS, the assay gave 2.4 nM (6 of 6 replicates; controls 2 of 18).
For TLTQSFGMESHNKNSVA | DLSTRGS | QQYHRLPLS, the assay gave 1.8 nM (6 of 6 replicates; controls 2 of 18).
For IVSQLMLWGLHAKNSIA | EAQMRLN | QQYDRLPLF, the assay gave 4.4 nM (6 of 6 replicates; controls 0 of 18).
For TISQITSLFTQNINNVA | EVSTRCN | QQYDRLPLS, the assay gave 12 nM (6 of 6 replicates; controls 2 of 18).
For QLEVFPLQAGSTYNAIA | DASHSTP | QQYSRLPLV, the assay gave 6.3 nM (6 of 6 replicates; controls 0 of 18).
For MLGDVTQGLSRKHNSVA | DNSTREA | QQYDRLPLS, the assay gave 280 nM (6 of 6 replicates; controls 1 of 18).
For HSNGNLRMGERNKNHVA | STDVRES | QQYSRLPLT, the assay gave 11 nM (6 of 6 replicates; controls 3 of 18).
For QLQFEDVQYGVNEQAIA | EENQRMQ | QQYFRLPLI, the assay gave 9.3 nM (6 of 6 replicates; controls 1 of 18).
For KLSGATRLESQNKASVA | ENSTRGE | QQYFRLPLA, the assay gave 1.8 nM (6 of 6 replicates; controls 0 of 18).
For KLQQSDLYESRNKNNVA | NATLREQ | QQYHRLPLS, the assay gave 410 pM (6 of 6 replicates; controls 2 of 18).
For MMKQSIEGNPLNTNNIA | DADSVTE | QQYARLPLF, the assay gave 840 pM (6 of 6 replicates; controls 1 of 18).
For SLFFHDDQLQEESNNIA | HASLRSV | QQYMHLPLV, the assay gave 5.7 nM (6 of 6 replicates; controls 2 of 18).
For MVSQLMLWGLHAKNSIA | EAVTRYN | QQYDRLPLM, the assay gave 41 nM (1 of 6 replicates; controls 0 of 18).
For KLSQSVMGGSRNKCSVA | NASQREQ | QQYHRLPLS, the assay gave 1.7 nM (6 of 6 replicates; controls 2 of 18).
For TLGQSTMMESRNKNNVA | QMSTREK | QQYHRLPLS, the assay gave 1.7 nM (6 of 6 replicates; controls 0 of 18).
For QLSMWEQNGTRGYSSVA | DTDVRMA | QQYHRLPLS, the assay gave 1.6 nM (6 of 6 replicates; controls 0 of 18).
For KVSGLGLYGQRNANSVA | EASTRED | QQYHRLPLS, the assay gave 310 pM (6 of 6 replicates; controls 0 of 18).
For TISMHTSLFSQTINNVA | EVSMREP | QQYDRLPLM, the assay gave 5.4 nM (6 of 6 replicates; controls 1 of 18).
For KLSATYRFESNNKSNIA | EMTTRES | QCYHRLPLS, the assay gave 140 nM (2 of 6 replicates; controls 1 of 18).
For MFSYNLHDMGRNKNSVA | EMNKSTT | QDYHRLPLA, the assay gave 14 nM (6 of 6 replicates; controls 2 of 18).
For KLSVSMLLESFHRNNVA | ENSTREE | QHYHRLPLS, the assay gave nd (0 of 6 replicates; controls 0 of 18).
For QIQDFKENDAEWGDSVA | ETSARTA | QQYHRLPLA, the assay gave 44 nM (5 of 6 replicates; controls 0 of 18).
For TISQVMNTLTRHGNNVA | DLQERED | QQYFRLPLS, the assay gave 2.0 nM (6 of 6 replicates; controls 3 of 18).
For KISTQIPEFEMWDNAIA | GATLRET | QHYQRLPLS, the assay gave 86 nM (6 of 6 replicates; controls 2 of 18).
For TLGYNTMVESIKKNNVA | EMSTRLN | QQYVRLPLA, the assay gave 2.7 nM (6 of 6 replicates; controls 0 of 18).
For KIGGVTNGISRNKNSVA | EQSTREK | QQYNRLPLS, the assay gave 1.8 nM (6 of 6 replicates; controls 1 of 18).
For MLSQMTGLGMKAKNSVA | QANMRFD | QQYHRLPLV, the assay gave 6.3 nM (6 of 6 replicates; controls 0 of 18).

Repeated from above, the 3 best binders with a signal in all replicates:

CDR-L1,CDR-L2,CDR-L3,apparent Kd,seen in,control signals
KVSGLGLYGQRNANSVA,EASTRED,QQYHRLPLS,310 pM,6/6,0/18
KLQQSDLYESRNKNNVA,NATLREQ,QQYHRLPLS,410 pM,6/6,2/18
MMKQSIEGNPLNTNNIA,DADSVTE,QQYARLPLF,840 pM,6/6,1/18

As a blank, each scFv also met three strains without target: over all light chain designs, 4% of these pairings were detected, typically at 430 nM and seldom below 38 nM. For each scFv, signals with the empty controls are counted beside the result. The authors averaged sequences with at least three values out of six and counted those with two or fewer as poor binders. A sequence measured in both rounds can read differently, since the two assays cover different ranges.

Data: MIT Lincoln Laboratory AlphaSeq set, Li et al. 2023, doi:10.1038/s41467-023-39022-2, as distributed in FLAb.